# Laboratory results taken from ChEMBL document CHEMBL1641585, “Discovery of novel and orally active FXR agonists for the potential treatment of dyslipidemia & diabetes” (Bioorg Med Chem Lett, 2011).
# Biological target: T1, Bile acid receptor (Homo sapiens, UniProt Q96RI1)
# T1 sequence (Q96RI1 whole entry): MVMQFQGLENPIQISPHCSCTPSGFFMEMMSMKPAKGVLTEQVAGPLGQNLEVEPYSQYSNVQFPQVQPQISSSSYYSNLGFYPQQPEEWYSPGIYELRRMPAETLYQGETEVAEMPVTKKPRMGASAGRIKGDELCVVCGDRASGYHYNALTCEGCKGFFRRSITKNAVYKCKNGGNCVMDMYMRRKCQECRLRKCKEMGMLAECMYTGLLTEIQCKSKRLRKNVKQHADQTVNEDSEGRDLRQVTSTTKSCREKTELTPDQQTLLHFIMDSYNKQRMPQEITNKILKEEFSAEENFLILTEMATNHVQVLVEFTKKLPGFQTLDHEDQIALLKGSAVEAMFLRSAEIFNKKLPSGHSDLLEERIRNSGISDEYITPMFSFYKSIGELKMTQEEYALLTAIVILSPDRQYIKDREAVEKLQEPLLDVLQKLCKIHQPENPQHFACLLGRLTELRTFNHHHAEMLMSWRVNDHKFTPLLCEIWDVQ
# Experiment: Displacement of radioligand from human FXR by scintillation proximity assay
compound,measurement,value
O=C(NC1CCCCC1)C(C1CCCCC1)n1c(-c2ccc(Cl)cc2)nc2ccccc21 (stereo unspecified),IC50,70 nM
